Values of other authors, collected in PMC4368798.

Chains of the proteins cited; added tags and fusions are not shown. Residues count along the entry.
UniProt Q07954, 20-4544: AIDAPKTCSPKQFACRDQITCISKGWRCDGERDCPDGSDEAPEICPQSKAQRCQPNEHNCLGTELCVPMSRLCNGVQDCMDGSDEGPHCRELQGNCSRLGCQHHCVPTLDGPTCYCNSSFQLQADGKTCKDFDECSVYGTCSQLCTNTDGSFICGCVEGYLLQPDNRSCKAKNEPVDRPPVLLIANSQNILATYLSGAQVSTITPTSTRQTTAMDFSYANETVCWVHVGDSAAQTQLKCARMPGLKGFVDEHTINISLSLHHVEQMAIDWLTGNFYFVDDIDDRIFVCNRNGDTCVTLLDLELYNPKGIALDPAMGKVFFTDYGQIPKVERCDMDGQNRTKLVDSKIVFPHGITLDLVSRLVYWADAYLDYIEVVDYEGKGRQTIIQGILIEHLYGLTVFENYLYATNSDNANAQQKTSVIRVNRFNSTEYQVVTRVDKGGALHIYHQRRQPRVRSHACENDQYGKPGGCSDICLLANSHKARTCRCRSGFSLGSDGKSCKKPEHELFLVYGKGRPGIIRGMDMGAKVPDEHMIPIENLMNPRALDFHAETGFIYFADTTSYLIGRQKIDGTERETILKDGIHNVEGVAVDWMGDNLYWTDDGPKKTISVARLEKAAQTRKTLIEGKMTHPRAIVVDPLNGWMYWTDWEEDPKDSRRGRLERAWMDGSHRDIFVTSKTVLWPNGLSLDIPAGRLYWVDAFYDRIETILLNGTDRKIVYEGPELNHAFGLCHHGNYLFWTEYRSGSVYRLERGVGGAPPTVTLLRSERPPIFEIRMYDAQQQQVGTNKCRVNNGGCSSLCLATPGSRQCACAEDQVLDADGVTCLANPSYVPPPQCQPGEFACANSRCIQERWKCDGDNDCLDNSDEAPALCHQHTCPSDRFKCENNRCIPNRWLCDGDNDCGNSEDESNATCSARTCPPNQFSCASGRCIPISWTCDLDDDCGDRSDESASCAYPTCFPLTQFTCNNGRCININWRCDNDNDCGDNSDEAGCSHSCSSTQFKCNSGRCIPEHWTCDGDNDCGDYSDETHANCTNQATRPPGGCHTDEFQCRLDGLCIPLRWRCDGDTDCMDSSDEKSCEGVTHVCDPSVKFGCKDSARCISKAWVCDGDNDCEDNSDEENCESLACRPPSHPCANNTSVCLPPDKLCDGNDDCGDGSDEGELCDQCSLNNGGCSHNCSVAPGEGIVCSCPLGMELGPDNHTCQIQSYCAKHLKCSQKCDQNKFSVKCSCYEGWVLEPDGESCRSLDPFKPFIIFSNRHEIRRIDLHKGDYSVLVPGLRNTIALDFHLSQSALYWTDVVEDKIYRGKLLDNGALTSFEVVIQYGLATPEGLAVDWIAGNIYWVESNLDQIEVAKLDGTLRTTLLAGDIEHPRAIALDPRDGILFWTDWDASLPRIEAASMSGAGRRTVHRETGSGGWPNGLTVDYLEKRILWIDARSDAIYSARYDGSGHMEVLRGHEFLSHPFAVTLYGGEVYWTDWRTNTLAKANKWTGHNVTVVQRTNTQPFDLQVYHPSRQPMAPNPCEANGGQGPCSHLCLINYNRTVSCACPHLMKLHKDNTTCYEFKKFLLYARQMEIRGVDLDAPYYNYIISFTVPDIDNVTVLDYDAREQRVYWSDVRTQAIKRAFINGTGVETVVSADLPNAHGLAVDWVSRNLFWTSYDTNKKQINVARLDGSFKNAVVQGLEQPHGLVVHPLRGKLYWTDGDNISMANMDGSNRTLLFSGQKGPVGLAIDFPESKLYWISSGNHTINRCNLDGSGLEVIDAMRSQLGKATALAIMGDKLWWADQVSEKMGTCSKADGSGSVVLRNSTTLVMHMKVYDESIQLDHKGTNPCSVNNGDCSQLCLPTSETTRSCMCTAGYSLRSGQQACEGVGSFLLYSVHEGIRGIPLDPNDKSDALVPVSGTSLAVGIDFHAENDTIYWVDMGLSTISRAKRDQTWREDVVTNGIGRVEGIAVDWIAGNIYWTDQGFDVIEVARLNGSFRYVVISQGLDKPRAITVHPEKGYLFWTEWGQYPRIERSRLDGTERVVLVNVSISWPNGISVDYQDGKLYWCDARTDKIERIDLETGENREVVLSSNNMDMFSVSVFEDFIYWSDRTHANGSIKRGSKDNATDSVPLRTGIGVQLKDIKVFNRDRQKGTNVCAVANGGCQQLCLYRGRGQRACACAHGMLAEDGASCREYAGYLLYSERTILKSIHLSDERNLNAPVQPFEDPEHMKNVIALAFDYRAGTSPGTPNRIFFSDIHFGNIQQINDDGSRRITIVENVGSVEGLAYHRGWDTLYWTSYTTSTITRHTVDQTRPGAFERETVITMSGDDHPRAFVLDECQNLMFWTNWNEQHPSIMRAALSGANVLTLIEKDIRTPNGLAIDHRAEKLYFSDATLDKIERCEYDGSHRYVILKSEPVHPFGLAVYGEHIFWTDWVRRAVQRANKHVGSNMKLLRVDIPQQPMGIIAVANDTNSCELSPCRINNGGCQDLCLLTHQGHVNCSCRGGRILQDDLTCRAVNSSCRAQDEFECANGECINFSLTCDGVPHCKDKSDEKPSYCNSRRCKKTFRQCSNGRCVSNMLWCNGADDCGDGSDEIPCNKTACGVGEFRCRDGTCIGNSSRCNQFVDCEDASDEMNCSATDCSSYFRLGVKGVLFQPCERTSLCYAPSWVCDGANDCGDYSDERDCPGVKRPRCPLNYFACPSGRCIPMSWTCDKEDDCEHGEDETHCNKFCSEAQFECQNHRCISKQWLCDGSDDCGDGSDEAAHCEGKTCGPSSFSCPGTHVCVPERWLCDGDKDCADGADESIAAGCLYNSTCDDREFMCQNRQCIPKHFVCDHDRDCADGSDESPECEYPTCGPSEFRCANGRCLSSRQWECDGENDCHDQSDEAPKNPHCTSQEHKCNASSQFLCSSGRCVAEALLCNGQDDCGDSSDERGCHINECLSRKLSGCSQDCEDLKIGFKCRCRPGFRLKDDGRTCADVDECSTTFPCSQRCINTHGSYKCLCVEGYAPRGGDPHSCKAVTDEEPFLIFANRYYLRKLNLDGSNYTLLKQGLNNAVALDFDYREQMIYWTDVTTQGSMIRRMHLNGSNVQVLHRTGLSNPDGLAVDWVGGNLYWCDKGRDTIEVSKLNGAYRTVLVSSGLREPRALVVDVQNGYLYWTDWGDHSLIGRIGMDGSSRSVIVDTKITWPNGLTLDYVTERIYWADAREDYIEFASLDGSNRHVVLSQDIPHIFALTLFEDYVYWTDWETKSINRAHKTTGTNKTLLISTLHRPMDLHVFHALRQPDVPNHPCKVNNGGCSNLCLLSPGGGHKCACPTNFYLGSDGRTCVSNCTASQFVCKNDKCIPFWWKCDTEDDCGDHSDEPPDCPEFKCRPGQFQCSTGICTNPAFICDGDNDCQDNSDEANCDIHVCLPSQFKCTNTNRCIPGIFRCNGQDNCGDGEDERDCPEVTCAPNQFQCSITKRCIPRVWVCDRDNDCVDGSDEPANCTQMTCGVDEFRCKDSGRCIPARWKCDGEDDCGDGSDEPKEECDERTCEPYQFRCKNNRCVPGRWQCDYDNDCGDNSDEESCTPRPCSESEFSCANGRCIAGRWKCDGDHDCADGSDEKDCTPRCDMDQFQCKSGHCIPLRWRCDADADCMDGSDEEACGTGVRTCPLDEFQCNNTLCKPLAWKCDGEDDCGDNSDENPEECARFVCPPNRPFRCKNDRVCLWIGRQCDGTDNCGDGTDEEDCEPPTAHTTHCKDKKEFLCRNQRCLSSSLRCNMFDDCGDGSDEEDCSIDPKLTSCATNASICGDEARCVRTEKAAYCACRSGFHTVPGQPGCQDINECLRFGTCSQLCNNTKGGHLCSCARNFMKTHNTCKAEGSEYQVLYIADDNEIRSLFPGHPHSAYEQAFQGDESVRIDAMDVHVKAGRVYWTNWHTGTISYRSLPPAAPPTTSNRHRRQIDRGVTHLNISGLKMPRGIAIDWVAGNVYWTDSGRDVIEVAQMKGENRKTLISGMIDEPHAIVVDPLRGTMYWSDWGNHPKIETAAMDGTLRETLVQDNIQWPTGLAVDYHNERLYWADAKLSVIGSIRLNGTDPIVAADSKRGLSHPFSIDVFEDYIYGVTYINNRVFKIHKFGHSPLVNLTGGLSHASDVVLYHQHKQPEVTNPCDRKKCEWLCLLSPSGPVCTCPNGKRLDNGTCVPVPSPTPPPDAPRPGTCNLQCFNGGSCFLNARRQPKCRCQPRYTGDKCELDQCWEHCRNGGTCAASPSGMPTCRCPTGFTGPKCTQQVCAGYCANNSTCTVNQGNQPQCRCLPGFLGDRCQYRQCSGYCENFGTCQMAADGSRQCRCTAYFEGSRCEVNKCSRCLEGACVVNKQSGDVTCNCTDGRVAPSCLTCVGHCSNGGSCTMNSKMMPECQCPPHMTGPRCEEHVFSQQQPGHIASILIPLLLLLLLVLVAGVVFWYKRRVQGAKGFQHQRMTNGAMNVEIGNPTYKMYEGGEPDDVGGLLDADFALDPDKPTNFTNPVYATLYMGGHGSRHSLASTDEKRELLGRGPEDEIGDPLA

Biological target: LRP-1A (Homo sapiens) (UniProt Q07954)

Substance: pro-uPA (from UniProt P00749)
- Kd: 0.015 µM
